The record followed here is PMC3471877 (PLoS ONE, 2012).

The chains behind the UniProt entries cited, without tags or fusion partners. Residues count along the entry.
UniProt P25101, 21-427: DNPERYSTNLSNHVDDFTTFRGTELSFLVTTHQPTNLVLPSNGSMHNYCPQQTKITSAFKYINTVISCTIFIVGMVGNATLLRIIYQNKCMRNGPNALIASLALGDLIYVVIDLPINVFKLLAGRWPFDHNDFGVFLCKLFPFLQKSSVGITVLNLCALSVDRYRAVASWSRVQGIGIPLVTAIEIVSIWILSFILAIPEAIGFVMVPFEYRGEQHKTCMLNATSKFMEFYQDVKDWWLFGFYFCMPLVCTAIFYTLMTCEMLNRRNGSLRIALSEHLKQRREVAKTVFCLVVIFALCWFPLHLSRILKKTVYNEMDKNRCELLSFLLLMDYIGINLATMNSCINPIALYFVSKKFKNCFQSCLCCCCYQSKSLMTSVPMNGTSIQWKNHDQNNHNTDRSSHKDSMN

Each structure is given as a SMILES string.

Experiment [1] deals with ET receptors in human primary PASMC (Homo sapiens, UniProt P25101). Kind of experiment: cell-based. To be noted: ET-1 EC50–EC70.
Experiment [2] concerns the target recombinant ETA receptor (Homo sapiens, UniProt P25101). Kind of experiment: cell-based.

Turning to `COc1nc(C)cnc1NS(=O)(=O)c1cccnc1-c1ccc(-c2nnco2)cc1` [zibotentan], the Kb in experiment [1] (Kb 10 min, 10 min antagonist pre-incubation, geometric mean n = 6) worked out at 0.65 nM; in experiment [1] (Kb 120 min, 120 min antagonist pre-incubation (steady state), geometric mean n = 6), 0.87 nM; in experiment [1] (Kb PASMC, Table 1, 120 min antagonist pre-incubation, from IC50 via Cheng-Prusoff, geometric mean n = 3–8), 0.87 nM; in experiment [2] it was 8.5 nM.
